{"sequences": {"note": "Chains of the proteins cited; added tags and fusions are not shown.", "UniProt P21554, whole entry": "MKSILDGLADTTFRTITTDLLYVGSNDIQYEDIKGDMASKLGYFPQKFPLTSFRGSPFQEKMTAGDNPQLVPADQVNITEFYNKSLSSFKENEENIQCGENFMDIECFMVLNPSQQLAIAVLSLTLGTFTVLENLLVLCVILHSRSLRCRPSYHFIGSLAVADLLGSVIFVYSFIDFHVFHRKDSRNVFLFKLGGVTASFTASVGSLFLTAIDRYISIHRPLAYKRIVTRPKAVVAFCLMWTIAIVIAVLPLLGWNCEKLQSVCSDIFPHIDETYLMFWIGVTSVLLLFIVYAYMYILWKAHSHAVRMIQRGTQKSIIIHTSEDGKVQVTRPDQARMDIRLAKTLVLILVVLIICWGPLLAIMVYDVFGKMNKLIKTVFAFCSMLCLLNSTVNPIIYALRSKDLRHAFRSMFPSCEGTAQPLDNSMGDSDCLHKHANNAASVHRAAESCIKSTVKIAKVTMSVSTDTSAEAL"}, "source": "paper PMC3973694", "about": "“Identification of Odorant-Receptor Interactions by Global Mapping of the Human Odorome” (PLoS ONE, 2014)", "target": "human cannabinoid receptor CB1 (Homo sapiens, UniProt P21554)", "assay": "GloSensor cAMP assay, CB1-transfected HEK293 cells", "assay_type": "cell-based"}
{"smiles": "Cc1c(C(=O)NN2CCCCC2)nn(-c2ccc(Cl)cc2Cl)c1-c1ccc(I)cc1", "note": "[AM251, N-(piperidin-1-yl)-5-(4-iodophenyl)-1-(2,4-dichlorophenyl)-4-methyl-1H-pyrazole-3-carboxamide, reference compound]", "values": [{"measurement": "mode of action at CB1", "value": "inverse agonist"}]}
